From article PMC5687611 (Oncotarget, 2017)

Biological target: soluble human PD-L1 ([…]) (human)
Assay: SPR; Biacore T200, biotinylated hPD-1 captured on streptavidin-coated CM5 chip, hPD-L1 and variants injected, single-cycle kinetics, 1:1 binding model, room temperature
Settings: both partners purified

Kd: 17.7 µM
koff: 0.77 s⁻¹
kon: 43600 M⁻¹ s⁻¹
B1: biotinylated hPD-1 (residues 33-150, C93S, with biotin tag) (domain or fragment)
chain: NPPTFSPALLVVTEGDNATFTCSFSNTSESFVLNWYRMSPSNQTDKLAAFPEDRSQPGQDSRFRVTQLPNGRDFHMSVVRARRNDSGTYLCGAISLAPKAQIKESLRAELRVTERRAE
modifications: biotin on the biotin tag (BirA biotin ligase)
